Values of other authors in patent US20150177227A1, “CELLULAR AND ANIMAL MODELS FOR SCREENING THERAPEUTIC AGENTS FOR THE TREATMENT OF ALZHEIMER'S DISEASE” (priority 2012, published 2015).

What was measured:
plaque = conditions: in vivo

Substance: bapineuzumab: humanized antibody from Johnson & Johnson/Pfizer shown to clear plaque
- plaque clearance (plaque): clear plaque
- benefit trend in phase II clinical trials (Alzheimer's disease): neither antibody showed any trend
